{
  "sequences": {"note": "By UniProt entry, the sequences of proteins in these tests, tags left out. Residues count along the entry.", "UniProt P36544, 23-502": "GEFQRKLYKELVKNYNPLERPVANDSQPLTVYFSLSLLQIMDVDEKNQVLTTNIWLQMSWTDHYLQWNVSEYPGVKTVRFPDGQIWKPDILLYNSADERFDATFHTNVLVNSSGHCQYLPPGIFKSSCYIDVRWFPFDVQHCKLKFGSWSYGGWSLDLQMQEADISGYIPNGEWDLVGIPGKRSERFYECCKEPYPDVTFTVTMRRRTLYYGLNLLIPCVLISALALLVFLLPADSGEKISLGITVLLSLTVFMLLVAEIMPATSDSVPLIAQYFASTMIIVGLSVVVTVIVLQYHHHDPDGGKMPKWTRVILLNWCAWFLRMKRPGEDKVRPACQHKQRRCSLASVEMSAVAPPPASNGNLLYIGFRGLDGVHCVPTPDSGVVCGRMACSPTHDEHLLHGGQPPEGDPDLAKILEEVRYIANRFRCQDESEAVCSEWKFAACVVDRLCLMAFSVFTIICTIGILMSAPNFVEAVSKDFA"},
  "source": "paper PMC10531384",
  "molecular_target": "SNAP-α7 nicotinic acetylcholine receptor (UniProt P36544)",
  "assay": "FRET or BRET; TR-FRET on HEK293T cells expressing SNAP-α7nAChR (surface receptor labelled with Lumi4-Tb) and NACHO; 10 nM Aβ42-FAM with varying concentrations of unlabeled Aβ42; Tag-lite medium, 2–4 h at room temperature; non-specific binding with 1 μM unlabeled Aβ42",
  "note": "pIC50: −log10 of the molar value.",
  "data": [
    {"substance": "Aβ1–42 human, unlabeled (from UniProt P05067 672-713) (peptide; Terbium cryptate (Lumi4-Tb) on the SNAP tag; other documents disagree on this pair)", "values": [
      {"measurement": "pIC50", "value": 11.89}
    ]}
  ]
}
